Here are results for 32 compounds from PubChem BioAssay AID629 (Emory University Molecular Libraries Screening Center, 2007).

Protein sequences, listed by entry. Tags and fused reporters are not part of them.
UniProt P03372, whole entry: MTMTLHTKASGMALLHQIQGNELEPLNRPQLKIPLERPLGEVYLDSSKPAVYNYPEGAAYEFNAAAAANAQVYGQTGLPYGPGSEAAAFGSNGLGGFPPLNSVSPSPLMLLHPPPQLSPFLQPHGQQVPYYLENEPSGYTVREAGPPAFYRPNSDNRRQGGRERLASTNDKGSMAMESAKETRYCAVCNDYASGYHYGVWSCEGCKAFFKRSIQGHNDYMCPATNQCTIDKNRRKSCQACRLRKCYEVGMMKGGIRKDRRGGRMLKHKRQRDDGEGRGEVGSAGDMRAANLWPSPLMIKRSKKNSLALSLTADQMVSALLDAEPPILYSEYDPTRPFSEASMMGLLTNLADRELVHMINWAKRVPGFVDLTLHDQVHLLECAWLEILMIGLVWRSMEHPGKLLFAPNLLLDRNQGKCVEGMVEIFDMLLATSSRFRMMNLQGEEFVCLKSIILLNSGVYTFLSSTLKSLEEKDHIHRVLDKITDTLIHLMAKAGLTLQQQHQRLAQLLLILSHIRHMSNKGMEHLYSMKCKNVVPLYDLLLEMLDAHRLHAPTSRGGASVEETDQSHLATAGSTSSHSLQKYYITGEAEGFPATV

Only a part is listed here, and it is no random draw. Activity calls are given as the source filed them. No stated cut-off is given here; in the data, active means inhibition above about 50%; inactive means the rest.

The test has as its target Estrogen receptor (Homo sapiens) (UniProt P03372). Nature of the test: ERα–SRC-1 coactivator interaction inhibitors, primary screen, biochemical, TR-FRET, ERα LBD, estradiol-bound (AID 629).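 Further: 0% = receptor plus peptide control and 100% = peptide only without receptor.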 The note with it: TR-FRET ER-alpha LBD / SRC-1 peptide, at 25.6 µM, active compounds read high. Background: TR-FRET usually uses a lanthanide donor and a delayed reading to cut background.
Turning to `CN(C)CCOC(=O)C(O)(c1ccccc1)C1CCCCC1` (configuration not stated), the inhibition is inactive: -12.4%.
In the case of `CCOP(C)(=S)SCC(=O)NC(C)(CC)C(=O)O` (configuration not stated), the inhibition is inactive: -0.68%.
Turning to `Cc1ccccc1NP(C)(=O)Nc1ccccc1C`, the inhibition is inactive: 6.35%.
For `CP(=O)(Nc1ccc2c(c1)OCCO2)Oc1ccccc1` (configuration not stated) the value was inactive: 5.36%.
For `CP(=O)(Nc1ccccc1F)Oc1ccccc1` (configuration not stated) the value was inactive: -3.08%; for `CP(=O)(Nc1ccccc1)Oc1ccc(F)cc1` (configuration not stated), inactive: -8.4%.
For `CCN(CC)CCCOC(=O)C(O)(c1ccccc1)C1CCCCC1` (configuration not stated) the value was inactive: -15.1%; for `COc1ccccc1OP(C)(=O)Nc1ccc(C)c(C)c1` (configuration not stated), inactive: -8.1%; for `Cc1nc2ccc3ccccc3c2o1.O=[N+]([O-])c1cc([N+](=O)[O-])c(O)c([N+](=O)[O-])c1`, inactive: 8.41%.
`COc1ccc(OP(C)(=O)Nc2ccccn2)cc1` (configuration not stated): the inhibition was inactive: 6.32%.
For `CN(C)CCOC(=O)C(O)(c1ccccc1)C1CCCC1` (configuration not stated) the value was inactive: -0.57%; for `COc1ccccc1OP(C)(=O)Nc1ccc(C)cc1C` (configuration not stated), inactive: -1.16%; for `CP(=O)(Nc1ccccn1)Oc1ccccc1` (configuration not stated), inactive: -2.85%.
For `CCc1ccc(OP(C)(=O)O)cc1` the value was inactive: 3.68%.
For `Cc1c(NP(C)(=O)Oc2ccc(C(C)C)cc2)c(=O)n(-c2ccccc2)n1C` (configuration not stated), the inhibition is inactive: -6.45%.
Take `COc1ccccc1OP(C)(=O)Nc1c(C)n(C)n(-c2ccccc2)c1=O` (configuration not stated): the inhibition was inactive: -6.71%.
For `CP(=O)(Oc1ccccc1)N1CCOC1=O` (configuration not stated) the value was inactive: 0.3%; for `CC(C)(C)c1ccc(OP(C)(=O)O)cc1`, inactive: -0.07%; for `CP(=O)(Nc1ccc(Cl)cc1)Oc1ccc(F)cc1` (configuration not stated), inactive: 7.77%.
As for `CP(=O)(OC12CC3CC(CC(C3)C1)C2)OC12CC3CC(CC(C3)C1)C2`, the figure is inactive: 0.48%; as for `CP(=S)(Nn1cnnc1)Oc1ccccc1` (configuration not stated), inactive: -1.21%; as for `CP(=O)(NC(=O)Nc1ccccc1)Oc1ccccc1` (configuration not stated), inactive: -3.83%.
As for `CP(=O)(Nc1ccccn1)Oc1ccc(Cl)cc1` (configuration not stated), the figure is inactive: -11%.
For `CCOP(C)(=S)SCC(=O)NC(C)C(=O)O` (configuration not stated), the inhibition is inactive: -0.05%.
For `COc1ccc(OP(C)(=O)Nc2cccc(F)c2)cc1` (configuration not stated) the value was inactive: -4.42%; for `Cc1ccc(NP(C)(=O)Oc2ccccc2)c(C)c1` (configuration not stated), inactive: 5.26%.
For the compound `COc1ccccc1OP(C)(=O)Nc1ccc(C)cc1` (configuration not stated), the inhibition was inactive: -3.25%.
As for `Cc1cc(C)cc(OP(C)(=O)Nc2ccc(C)cc2C)c1` (configuration not stated), the inhibition is inactive: -7.1%.
`Cc1ccc(C)c(NP(C)(=O)Oc2ccccc2)c1` (configuration not stated): the inhibition was inactive: 6.09%.
For `Cc1cc(C)cc(OP(C)(=O)Nc2ccccn2)c1` (configuration not stated) the value was inactive: 2.99%; for `Cc1nc2ccc3ccccc3c2s1.O=[N+]([O-])c1cc([N+](=O)[O-])c(O)c([N+](=O)[O-])c1`, inactive: 9.04%.
As for `COc1ccccc1OP(C)(=O)Nc1c(C)cccc1C` (configuration not stated), the figure is inactive: -9.53%.

The term inhibition denotes the change of the read-out against control, counted positive when it falls.
